The target in the assay is T1, Caspase-6 (Homo sapiens, UniProt P55212).
T1 sequence (P55212 whole entry): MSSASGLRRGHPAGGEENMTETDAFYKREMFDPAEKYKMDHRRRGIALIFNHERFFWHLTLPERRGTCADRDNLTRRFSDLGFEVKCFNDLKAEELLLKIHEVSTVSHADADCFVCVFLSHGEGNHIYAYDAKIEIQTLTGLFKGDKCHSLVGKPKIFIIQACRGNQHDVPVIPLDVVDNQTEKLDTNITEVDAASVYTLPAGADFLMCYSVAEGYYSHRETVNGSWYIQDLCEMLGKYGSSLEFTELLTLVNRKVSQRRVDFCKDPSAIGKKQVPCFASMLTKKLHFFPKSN
Briefly: Caspase Inhibition Assay. On the procedure:
The substrate peptides terminating in AMC are processed by caspases with or without inhibitors. The amount of AMC released was determined by using a Victor microplate fluorometer (Perkin-Elmer Life Sciences, Boston, MA) at excitation and emission wavelengths of 355 and 460 nm. Compounds were tested in duplicate, and IC50 curves were calculated for all inhibitors. Final IC50s were the average of three independent experiments.

This note sets out measurements from BindingDB's records for doi:10.1021/jm0506625 (Washington University, 2005).

One may read the IC50 as the concentration that gives 50% inhibition. With `CCC(C)[C@H](NC(=O)[C@H](CCC(=O)O)NC(=O)[C@@H](NC(C)=O)C(C)C)C(=O)N[C@H](C=O)CC(=O)O` (stereo partly drawn) [(4S)-4-{[(1S)-1-{[(2S)-1-carboxy-3-oxopropan-2-yl]carbamoyl}-2-methylbutyl]carbamoyl}-4-[(2S)-2-acetamido-3-methylbutanamido]butanoic acid], the IC50 is 60.5 nM.
